Values of other authors, collected in patent publication US10953107B2, “Polypeptide compositions and methods for site-specific targeting of therapeutic agents” (Trustees of Boston University, priority 2018, dated 2021).

Settings: first value of 'x vs. y', second value is an unnamed comparator arm, cited from earlier work

Q: Which OS (overall survival) does the source give for Cetuximab here?
A: Its OS is 6.3 vs. 5.9 mo.

Q: And the PFS (progression-free survival)?
A: The PFS was 3.4 vs 3.0 mo.
